# Data: PubChem BioAssay AID624352 (Sanford-Burnham Center for Chemical Genomics, 2012)
# The list shows a part of the results, in another mix than the full data. Calls of active or inactive are those of the source.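 The calls were made as follows: active = inhibition of the luminescence signal of 40% or more relative to plate controls, in a single-dose primary screen at 18.75 µM; inactive = the rest.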
# Experiment: HIF-2a reporter inhibitors, primary screen, luminescence, 786-0 RCC cells (AID 624352)
# Details: 786-0 RCC cells HIF-2a reporter, luciferase luminescence, overnight; at 18.8 µM; stronger effect = higher value
row,SMILES,inhibition
1,CP(=O)(Nc1cccc(Br)c1)Oc1ccccc1 (stereo unspecified),inactive: 13.2%
